Experimental data published in article PMC11267547, “Advancing drug discovery through assay development: a survey of tool compounds within the human solute carrier superfamily” (Frontiers in Pharmacology, 2024).

Amino acid sequences for entries named in this document (tags omitted).
UniProt P31645, whole entry: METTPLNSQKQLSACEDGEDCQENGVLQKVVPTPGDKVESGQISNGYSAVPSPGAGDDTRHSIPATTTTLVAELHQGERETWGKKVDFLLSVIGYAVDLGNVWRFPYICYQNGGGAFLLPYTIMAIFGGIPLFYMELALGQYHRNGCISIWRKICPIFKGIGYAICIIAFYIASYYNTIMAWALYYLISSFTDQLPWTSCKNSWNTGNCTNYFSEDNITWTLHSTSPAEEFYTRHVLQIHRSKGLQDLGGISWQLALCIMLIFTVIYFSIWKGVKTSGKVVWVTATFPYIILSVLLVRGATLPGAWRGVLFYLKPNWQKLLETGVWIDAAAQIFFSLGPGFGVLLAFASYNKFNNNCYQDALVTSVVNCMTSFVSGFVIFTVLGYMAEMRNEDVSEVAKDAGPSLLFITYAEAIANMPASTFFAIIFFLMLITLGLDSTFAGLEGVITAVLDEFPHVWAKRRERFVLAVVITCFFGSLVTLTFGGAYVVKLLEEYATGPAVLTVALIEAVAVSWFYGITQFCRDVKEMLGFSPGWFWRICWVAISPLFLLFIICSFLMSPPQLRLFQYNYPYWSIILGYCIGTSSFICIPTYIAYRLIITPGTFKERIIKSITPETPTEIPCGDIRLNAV

Experiments:
SLC22A3 (OCT3) = biological target: T1, SLC22A3 (OCT3) (Homo sapiens, UniProt O75751); assay: Impedance-based MPP+ transport assay, HEK293–JumpIn–OCT3 cells; assay type: cell-based
T1 construct: expressed in transfected cells; host or cells: Jump In T-REx HEK293
T1 sequence (O75751 1-556): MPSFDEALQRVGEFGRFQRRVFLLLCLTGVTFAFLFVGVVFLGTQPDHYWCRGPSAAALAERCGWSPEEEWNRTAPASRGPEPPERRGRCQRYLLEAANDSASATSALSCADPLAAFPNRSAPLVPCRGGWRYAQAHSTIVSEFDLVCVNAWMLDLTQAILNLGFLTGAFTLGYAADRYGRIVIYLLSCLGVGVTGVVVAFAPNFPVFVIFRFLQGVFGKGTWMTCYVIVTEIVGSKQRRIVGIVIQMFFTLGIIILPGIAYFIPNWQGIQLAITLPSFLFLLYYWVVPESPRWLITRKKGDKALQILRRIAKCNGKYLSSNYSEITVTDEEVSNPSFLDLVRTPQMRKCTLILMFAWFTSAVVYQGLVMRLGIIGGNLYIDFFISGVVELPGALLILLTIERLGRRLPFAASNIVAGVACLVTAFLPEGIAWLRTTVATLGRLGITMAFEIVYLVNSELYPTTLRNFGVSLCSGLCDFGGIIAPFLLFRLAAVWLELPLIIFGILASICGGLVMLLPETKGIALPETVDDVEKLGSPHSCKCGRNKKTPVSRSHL

[1] = test system: 13 different SLCs (SLC1A1, SLC1A2, SLC1A3, SLC6A2, SLC6A4, SLC6A8, SLC6A9, SLC7A3, SLC9A1, SLC13A3, SLC22A3, SLC23A1, SLC6A12); assay: Test of selected compounds against a panel of 13 SLCs in RESOLUTE assays; assay type: cell-based, human; conditions: other tested SLCs of the 13-SLC panel; in words
SLC6A4 = SLC6A4 (Homo sapiens, UniProt P31645); assay: cell-based

Question: With `Nc1nc2ccc(OC(F)(F)F)cc2s1` [Riluzole] as the molecule, how does the IC50 (SLC22A3 (OCT3)) read?
Answer: Its IC50 is > 10 µM.

Question: Which “off-target activity / selectivity across the tested SLC panel” value [1] does the source give for `Cc1c(NC(=O)c2cc(C(N)=O)nc3cc(F)ccc23)c(C(F)(F)F)nn1Cc1ccc(C#N)cc1` [BAY-876] here?
Answer: Its value is “confirm the selectivity”.

Question: Which IC50 (SLC6A4) does the source give for `C=C(C)[C@H]1CN[C@H](C(=O)O)[C@H]1CC(=O)O` [Kainic acid] here?
Answer: The IC50 was > 10 µM.
